Settings: vitamin D-free serum matrix, 24-hour incubation at 37° C.; VD1 compared with VD2

| Substance | serum stability (in words) |
| --- | --- |
| 3α-[α-biotinamido-ω-dodeca(ethylene glycol)-amido]-25-hydroxy-deoxyvitamin D3 [VD1] | high serum stability |
| 3β-3′[α-biotinamido-ω-dodeca(ethylene glycol)-amido]amidopropyl-ether-25-hydroxy-vitamin D3 [VD2, reference compound] | significantly lower serum stability |

Reference: patent US11199553B2, “25-OH vitamin D derivatives for determining vitamin D metabolites” (ORGENTEC D[…], priority 2013, dated 2021)
